# PubChem BioAssay AID624467 (The Scripps Research Institute Molecular Screening Center, 2012)
# By UniProt entry, the sequences of proteins in these tests, tags left out. Where a name states a change or a piece, a line headed by the entry shows the natural chain unless it says otherwise.
# UniProt Q96RJ0: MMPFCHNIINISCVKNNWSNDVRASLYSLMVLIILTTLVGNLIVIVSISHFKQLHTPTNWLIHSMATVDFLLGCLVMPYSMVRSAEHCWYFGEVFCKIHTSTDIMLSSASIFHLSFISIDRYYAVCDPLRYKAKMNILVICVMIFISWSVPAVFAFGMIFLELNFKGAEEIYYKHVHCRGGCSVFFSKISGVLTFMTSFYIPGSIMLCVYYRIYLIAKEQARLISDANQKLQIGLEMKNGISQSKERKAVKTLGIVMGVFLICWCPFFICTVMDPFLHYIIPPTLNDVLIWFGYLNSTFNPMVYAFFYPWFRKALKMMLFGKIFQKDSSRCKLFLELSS
# The list shows a part of the results, in another mix than the full data. Active and inactive are the calls of the source.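 How the source made its calls: active means activation above the mean activation of all test compounds in the run plus 3 SD (cut at about 38% in these data); inactive means the rest.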
# Target: Trace amine-associated receptor 1 (Homo sapiens) (UniProt Q96RJ0)
# Assay: human TAAR1 agonists, primary screen, Fluo-8 calcium fluorescence, CHO RD-HGA16 cells (AID 624467)
# Settings: CHO RD-HGA16 TAAR1, Fluo-8 calcium fluorescence; at 3 µM; stronger effect = higher value; vehicle wells 0%, saturating PEA agonist 100%
row,Compound,activation
1,Nc1ccc(CCCCOc2ccccc2)cc1,inactive: 6.96%
2,COc1ccc(N)c([N+](=O)[O-])c1[N+](=O)[O-],inactive: 7.45%
3,C[C@H]1OP(=O)(Oc2ccccc2)[C@H](O)[C@H](O)[C@H]1N=[N+]=[N-] (some centres not stated),inactive: -0.9%
4,O=P(Nc1nc2ccccc2s1)(c1ccccc1)c1ccccc1,inactive: 3.05%
5,O=[As](O)(c1ccccc1)c1ccc(O)cc1,inactive: 0.76%
6,O=[N+]([O-])c1ncn(CCn2cnc([N+](=O)[O-])n2)n1,inactive: 1.29%
7,CC(=O)NC(SC(=S)N(C)C)C(Cl)(Cl)Cl (configuration not stated),inactive: 3.45%
8,O=C(OC1CN2CCC1CC2)c1cccc(Cl)c1 (configuration not stated),inactive: 10.3%
9,Nc1ccc([As](=O)(O)c2ccc([N+](=O)[O-])cc2)cc1,inactive: 3.47%
10,C(Cc1nn[nH]n1)Cc1nn[nH]n1,inactive: 8.43%
11,C/C(N)=N\P(=O)(OCc1ccccc1)OCc1ccccc1,inactive: 1.98%
12,Cc1ccc(NP(=O)(Oc2cccc(C)c2)Oc2cccc(C)c2)nc1,inactive: 1.46%
13,c1ccc(-c2nn[nH]n2)c(-c2nn[nH]n2)c1,inactive: 2.09%
14,CCNC(=S)/N=C(\N)N[N+](=O)[O-],inactive: 7.19%
15,O=C(NC1CCS(=O)(=O)C1)NP(=S)(Oc1ccccc1)Oc1ccccc1 (configuration not stated),inactive: -0.86%
16,O=P1(N(CCCl)CCCl)OCCC2CCCCN21 (configuration not stated),inactive: 0.65%
17,CCC(=O)N1C2C3N(C(=O)CC)C1C1N(C(=O)CC)C(C(N1C(=O)CC)N3C(=O)CC)N2C(=O)CC,inactive: 15.4%
18,O=C(OC1CN2CCC1CC2)c1ccccc1 (configuration not stated),inactive: -0.42%
19,Cc1ccc(OP(=O)(Nc2ccccn2)Oc2ccc(C)cc2)cc1,inactive: 9.16%
20,CC(=O)NC(SC(=S)N(CC(C)C)CC(C)C)C(Cl)(Cl)Cl (configuration not stated),inactive: 0.78%
21,COC(=O)c1cc2c(s1)N=C(c1ccccc1)N(C)P2(=O)N1CCOCC1 (configuration not stated),inactive: -0.83%

row,Compound,activation
1,CN(C)C(=O)Oc1noc2ccccc12,inactive: 3.52%
2,O=c1c2cc([N+](=O)[O-])ccc2[nH]c2c([N+](=O)[O-])cc([N+](=O)[O-])cc12,inactive: 19%
3,Cc1ccccc1OP(=O)(Nc1ccccn1)Oc1ccccc1C,inactive: 7.28%
4,CC(NC(=O)COC(=O)C(O)(c1ccccc1)c1ccccc1)c1ccccc1 (configuration not stated),inactive: 9.07%
5,CCOc1ccc(C2=NCC(CBr)S2)cc1 (configuration not stated),inactive: -0.24%
6,O=P1(Nc2nc3ccc(Cl)cc3s2)COc2ccccc2O1 (configuration not stated),inactive: 5.07%
7,CC(C)(C)C(=O)NC(Sc1ccccc1)C(Cl)(Cl)Cl (configuration not stated),inactive: 17.5%
8,CCc1cc(O)c([N+](=O)[O-])c(C)c1[N+](=O)[O-],inactive: 4.98%
9,C[C@@H]1C=CCP(=O)(Oc2ccccc2)O1 (some centres not stated),inactive: 3.6%
10,C[C@H]1OP(=O)(Oc2ccccc2)C[C@@H]2O[C@@H]21 (some centres not stated),inactive: 9.05%
11,Cc1ccccc1CN(C)C(=O)COC(=O)C(O)(c1ccccc1)c1ccccc1,inactive: 5.64%
12,COC(=O)C1(C)COP(=O)(NCc2ccccc2)OC1 (configuration not stated),inactive: 2.08%
13,N#C/C(=C\c1ccc(N(CCBr)CCBr)cc1)C(N)=O,inactive: 0%
14,CC(=O)c1ccc(N2CC2c2ccncc2)cc1 (configuration not stated),inactive: 1.52%
15,CC(=O)Nc1ccc(Oc2c([N+](=O)[O-])cc([N+](=O)[O-])cc2[N+](=O)[O-])cc1,inactive: 6.22%
16,CC(=O)Nc1ccc([As](=O)(O)O)c(O)c1,inactive: 2.98%
17,Cc1ccc(N/C(=N/P(=O)(N2CCOCC2)N2CCOCC2)N2CCOCC2)cc1,inactive: 9.06%
18,CN(C(=O)Cc1ccc(Cl)c(Cl)c1)[C@H]1CCCC[C@H]1N1CCCC1,inactive: 1.28%
19,NC(=O)c1cc([N+](=O)[O-])cc([N+](=O)[O-])c1N,inactive: 3.13%
20,Clc1ccc(Cl)c(NC2=NCC(CBr)S2)c1 (configuration not stated),inactive: 2.65%
21,CN1CCCC(OC(=O)C(c2ccccc2)c2ccccc2)C1 (configuration not stated),inactive: 5.41%

row,Compound,activation
1,Cc1ccc(OP(=O)(Nc2nccs2)Oc2ccc(C)cc2)cc1,inactive: 4.5%
2,COc1ccccc1OP(=O)(Nc1ccc(C)cn1)Oc1ccccc1OC,inactive: 14.3%
3,O=C(NC(Sc1ccncn1)C(Cl)(Cl)Cl)c1ccccc1 (configuration not stated),inactive: 0.59%
4,Oc1ccccc1CNc1ccccn1,inactive: 4.54%
5,CC(C)CC(=O)NC(Sc1ccc(Cl)cc1)C(Cl)(Cl)Cl (configuration not stated),inactive: 14.1%
6,Nc1cc(N)c2nonc2c1[N+](=O)[O-],inactive: 0.62%
7,CN(C)P(=O)(N(C)C)n1c(Nc2ccccc2)nnc1-c1ccccc1,inactive: 3.34%
8,O=P(Nc1nc2ccc(Cl)cc2s1)(c1ccccc1)c1ccccc1,inactive: 5.27%
9,CCCC1OP(N)(=O)OCC1CC (configuration not stated),inactive: 1.54%
10,O=C(O)c1ccccc1[As](=O)(O)O,inactive: -0.64%
11,CC(=O)Nc1ccc([As](=O)(O)O)cc1,inactive: 0.58%
12,CCn1c(=O)n(C2CCN(CC3CCCCCCC3)C[C@H]2CO)c2ccccc21 (some centres not stated),inactive: -0.34%
13,Cc1ccc(NP(=O)(Oc2ccccc2F)Oc2ccccc2F)nc1,inactive: 2.01%
14,CN(C(=O)Cc1ccc(Cl)c(Cl)c1)[C@H]1CCCC[C@@H]1N1CCCC1,inactive: 1.89%
15,CCOP(=O)(Nc1ccccc1)OCC,inactive: -0.42%
16,Cc1cc(SC(NC(=O)c2ccc(F)cc2)C(Cl)(Cl)Cl)ncn1 (configuration not stated),inactive: 2.83%
17,Nc1cccc2ccc([As](=O)(O)O)cc12,inactive: 4.2%
18,CCN(N=Nc1nonc1N)c1nonc1N,inactive: -0.52%
19,CN(C(=O)Cc1ccccc1)C1CC[C@@]2(CCCO2)C[C@@H]1N1CCCC1 (some centres not stated),inactive: 0.26%
20,O=P1(N(CCCl)CCCl)OCCCS1 (configuration not stated),inactive: 0.72%
21,O=C(Nc1cc([As](=O)(O)O)ccc1O)c1ccccc1,inactive: 0.72%

row,Compound,activation
1,O=[N+]([O-])c1ncn(CCn2ncnc2[N+](=O)[O-])n1,inactive: 7.04%
2,CC(C)(C)C(=O)NC(Sc1ccncn1)C(Cl)(Cl)Cl (configuration not stated),inactive: -0.7%
3,O=C(O)CNc1ccc([As](=O)(O)O)cc1,inactive: -0.29%
4,O=[N+]([O-])c1cccc(NC2=NCC(CBr)S2)c1 (configuration not stated),inactive: 3.02%
5,COC(=O)C1(C)COP(=O)(Nc2ccccc2)OC1 (configuration not stated),inactive: 2.02%
6,COc1ccc(C2=NCC(CBr)S2)cc1 (configuration not stated),inactive: 7.95%
7,CCc1nc2c(n1)c1c(non1O)c1c2no[n+]1[O-],inactive: 17.3%
8,O=[N+]([O-])c1cc([N+](=O)[O-])c(CCNc2ccccc2)c([N+](=O)[O-])c1,inactive: -1.54%
9,Cc1ccc(NP(=O)(Oc2ccccc2)Oc2ccccc2)nc1,inactive: -2.28%
10,O=[N+]([O-])c1cccc2n[nH]nc12,inactive: 18.1%
11,CC(=O)N1C2C3N(C(C)=O)C1C1N(C(C)=O)C(C(N1C(C)=O)N3C(C)=O)N2C(C)=O,inactive: 7.1%
12,CCN(/C(=N/P(=O)(N1CCOCC1)N1CCOCC1)N1CCOCC1)c1ccc(OC)cc1,inactive: 1.4%
13,C[N+]1=C2C=CC=CC=C2SC12C([N+](=O)[O-])=CC([N+](=O)[O-])=C[C-]2[N+](=O)[O-] (configuration not stated),inactive: 5.78%
14,Nc1ccc([As](=O)(O)c2ccc(N)cc2)cc1,inactive: 1.36%
15,c1cc(-c2nn[nH]n2)ccc1-c1nn[nH]n1,inactive: -0.59%
16,CC1CCN(C(=O)Oc2c(Cl)cc(Cl)c3cccnc23)CC1,inactive: 25.4%
17,CN(C)C(=O)OCCc1n(C)cc[n+]1C,inactive: 0.16%
18,CC(C)=N/N=C(\N)N[N+](=O)[O-],inactive: 0.66%
19,CC(C)c1nc(Nc2ccccc2)n(P(=O)(N(C)C)N(C)C)n1,inactive: 9.53%
